## Yeast mating assay B: variants of the scFv Ab-14

The measurements come from Li et al. 2023 (doi:10.1038/s41467-023-39022-2) through the FLAb antibody collection.

Antigen: PDVDLGDISGINAS, a 14-residue peptide of the SARS-CoV-2 spike HR2 region.

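Phage display of a naive human antibody library on the peptide gave the parent. These sequences belong to a second round, designed from the earlier measurements on random variants of the parent. Group labels follow the data file (Ctrl: baseline library sampled from a position-specific scoring matrix, with some repeated check sequences; Rand: our label for a block that the file lists under HC and that is probably the random mutants of the ten best first-round binders; En: ensemble of fine-tuned language models; GP: Gaussian process model; GPLM: also part of the Gaussian process libraries; HC: hill climbing; Gen: genetic algorithm; Gibbs: Gibbs sampling; a sequence that several methods proposed may carry one label only). In AlphaSeq, yeast of one mating type display the scFv and yeast of the other type display the target. Pairs that bind mate more often; barcode pairs of the diploids are counted by sequencing. The ratio of observed to expected reads was calibrated, replicate by replicate, on BCL2-family standards whose Kd was known from biolayer interferometry. There are six technical replicates.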

Each scFv is VH, a (GGGGS)3 linker, VL, as in the parent Ab-14, and differs from it in the CDRs of the heavy chain only.
VH: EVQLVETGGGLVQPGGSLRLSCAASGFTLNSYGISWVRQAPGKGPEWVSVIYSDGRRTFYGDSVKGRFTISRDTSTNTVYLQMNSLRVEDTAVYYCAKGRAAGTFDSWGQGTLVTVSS
VL: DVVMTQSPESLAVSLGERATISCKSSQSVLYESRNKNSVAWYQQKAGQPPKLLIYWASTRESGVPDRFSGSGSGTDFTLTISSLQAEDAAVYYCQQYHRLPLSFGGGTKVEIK

Variants are written as CDR1, CDR2 and CDR3 of the heavy chain (limits as in the source). Parent: GFTLNSYGIS, VIYSDGRRTFYGDSVK, GRAAGTFDS.
Affinities are written as log10 Kd with Kd in nM; a lower number is a better binder.
Averages over replicates are reported, and they cover detected replicates only.
"not detected" marks a missing value. The strain was present, yet no cells mated with the target were sequenced in any replicate, which points to weak or no binding.
The authors averaged sequences with at least three values out of six and counted those with two or fewer as poor binders.

| CDR-H1 | CDR-H2 | CDR-H3 | group | log10 Kd (nM), mean | detected |
|---|---|---|---|---|---|
| GENINEYGIS | VIYADGRRTAYAQDVK | GQAGGIIDV | En_Gibbs | not detected | 0 of 6 |
| GFNLNSYGIS | VIYSDGRRTFYGDSVR | GRAAGTFDS | Ctrl | 1.29 | 4 of 6 |
| GFTLNEYGIS | VIYSDGRRTFYTDSVK | GRTAGTFDK | GPLM_HC | -0.46 | 6 of 6 |
| GFDINEYGIS | VIYADGRRTFYADSVK | GNQGGTFDV | En_HC | 0.12 | 3 of 6 |
| GFQLNSYGIS | VIYSDGLRTFYGDSVK | GRAAGTFDS | Ctrl | not detected | 0 of 6 |
| GFDLNEYGIS | VIYADGLRTFYTDSVK | GEEAGTFDV | En_HC | -0.26 | 6 of 6 |
| GFDLDEYGIS | VIYADGKRTAYADDVK | GNQAGTFDL | En_Gen | -0.24 | 6 of 6 |
| GFQLNSYGIS | VIYSDGRRTFYGDSVK | GREAGTFDT | GPLM_Gen | 0.39 | 6 of 6 |
| GFDLNEYGIS | VIYADGRRTFYTDNVK | GQNAGTFDN | En_HC | -0.52 | 6 of 6 |
| GFDLNEYGIS | VIYADGKRTAYLQNVK | GEVAGFDQY | En_Gibbs | not detected | 0 of 6 |
| GFDLNEYGIS | VIYADGMRTFYVDSVK | GETAGTFDV | En_HC | -0.35 | 6 of 6 |
| GFDLNEYGIS | VIYADGQRTAYADSVK | GNVAGTFDL | En_Gen | -0.84 | 6 of 6 |
| DFSLNSYGIS | VIYSDGRRTFYGDSVK | GRERGTFSS | Ctrl | not detected | 0 of 6 |
| GFGLNEYGIS | VIYSDGRRTFYTDSVK | GKAAGTFDS | GP_HC | 0.16 | 6 of 6 |
| GFTLNSYGIS | VIYSDGRRTFYSDSVK | GHAAGTFDT | Ctrl+GPLM_Gen | 0.89 | 12 of 12 |
| HFSLNSYGIS | VIYSDGRRTFYADSVK | GRQAGTFDS | GP_Gen | not detected | 0 of 6 |
| GFDLDEYGIS | VIYADGMRTFYADSVK | GNIAGTFLQ | En_HC | -0.33 | 6 of 6 |
| GFDLNEYGIS | VIYADGVRTFYVDSVK | GETAGTFDN | En_HC | -0.46 | 6 of 6 |
| GFTLNSYGIS | VIYSDGRRTFYGDSVK | GREAATFDS | Ctrl | not detected | 0 of 6 |
| GKGLDEYGVS | VIYADGKRHFYAEDVK | GGIAGQFLV | En_Gibbs | not detected | 0 of 6 |
| GFDLNEYGIS | VIYADGSRTAYADSVK | GQVAGTFDL | En_Gen | -0.33 | 6 of 6 |
| GFTLNEYGIS | VIYSDGRRTFYTDSVK | GRFAGTFDK | GPLM_HC | 1.01 | 6 of 6 |
| GFDLDEYGIS | VIYADGMRTVYADSVK | GQNAGTFDV | En_Gen | 0.36 | 6 of 6 |
| GFDLNEYGIS | VIYADGMRTMYADSVK | GNNAGTFDV | En_Gen | 0.10 | 6 of 6 |
| GFDLDEYGIS | VIYADGQRTAYADSVK | GQVAGTFDL | En_Gen | -0.28 | 6 of 6 |
| GFTLESYGIS | VIYADGRRTFYGDSVK | GRAAGTFDQ | GP_Gen | 0.30 | 6 of 6 |
| GFTLNSYGIS | VIYSDGRRTFYQDSVK | GRFAGTFDD | Ctrl | not detected | 0 of 6 |
| GFTLNDYGIS | VDYSDGRRTFYGDSVK | GRAAGTFDS | Ctrl | not detected | 0 of 6 |
| GFDLNSYGIS | VIYSDGRRTFYIDSVK | GRAAGTFDS | GPLM_Gen | 0.09 | 6 of 6 |
| KFSLNSYGIS | VIYSDGRRTFYADSVK | GKNAGTFDS | GP_Gen | -0.10 | 4 of 6 |
| GFQLNEYGIS | VIYSDGRRTFYGDSVK | GQAAGTFDL | GPLM_Gen | 1.12 | 2 of 6 |
| GFTLNSYGIS | VIYSDGRRTFYGDSVK | GRAAGVFES | Ctrl | 0.64 | 6 of 6 |
| GFDLNSYGIS | VIYSDGRKTFYGDSVK | DRAAGTFSS | Ctrl | not detected | 0 of 6 |
| GFTLNSYGIS | VIYADGRRTFYGDSVK | GRDAGTFDS | Ctrl | -0.24 | 6 of 6 |
| GFTLSIYGIS | VIYSDGRRTFYTDSVK | GRFAGTFDC | Rand | not detected | 0 of 6 |
| GRTLNSYGIS | VIYSDGRRTFYGDSVK | GRFAGTFDS | Ctrl | 1.85 | 2 of 6 |
| GFDLNEYGIS | VIYADGLRTFYTDSVK | GEMAGTFDV | En_HC | -0.48 | 6 of 6 |
| GETLNSYGIS | VIYSDGRRTFYGDSVK | GRNAGTFDS | Ctrl | 2.46 | 5 of 6 |
| GFGLNEYGIS | VIYSDGRRTFYIDSVK | GNAAGTFDS | GP_Gibbs | 0.17 | 6 of 6 |
| GFHLNSYGIS | VIYSDGRRTFYADAVK | GRTAGTFDS | GP_Gibbs | 1.53 | 6 of 6 |
| GFDLNEYGIS | VIYADGKRTFYSDSVK | GTNGGTFDI | En_HC | 0.25 | 6 of 6 |
| GFTLNDYDIS | VAYSDGRRTFYGDSVK | GRAALTFIS | Rand | not detected | 0 of 6 |
| GFEIQEYGIS | VIYADGRRTAYAEQVK | GNMGGTFST | En_Gibbs | 0.49 | 6 of 6 |
| GFDLDEYGIS | VIYADGQRTFYADSVK | GEHAGTFDV | En_HC | -0.32 | 6 of 6 |
| GFDLDEYGIS | VIYADGRRTYYADSVK | GNQAGTFDV | En_Gen | -0.41 | 6 of 6 |
| GRDLDEYGIS | VIYADGTRKMYAPSFK | GEHGGTFLM | En_Gibbs | not detected | 0 of 6 |
| GFTLESYGIS | VIYADGRRTFYGDWVK | GRAAGTFDS | GP_HC | 1.50 | 4 of 6 |
| GFTVNSYGIS | VIYSDGRRTFYGDSVK | GRLAFTFDS | Ctrl | not detected | 0 of 6 |
| GFTLNSYGIS | VIYSDGRRTFYHDSVK | GREAGSFDS | Ctrl | 1.27 | 4 of 6 |
| GFTLNSYGIS | VIYSDGRRTFYADSVK | GRAKGTFDS | Ctrl | not detected | 0 of 6 |
| GFTLNSYGIS | VIYSDGRRTFYGDSVK | GRAGGTFDS | Ctrl | 2.41 | 2 of 6 |
| GFTLNQYGIS | VIYSDGQRTFYSDSVK | GQAAGTFDS | GPLM_HC | -0.15 | 6 of 6 |
| GFSLESYGIS | VIYSDGRRTFYADSVK | GRAAGTFDS | GPLM_Gen | 0.26 | 6 of 6 |
| GFELNSYGIS | VIYSDGRRTFYGDSVK | GMEAGTFDS | GP_Gen | 0.27 | 6 of 6 |
| GFDLDEYGIS | VIYADGMRTAYADSVK | GANAGTFDV | En_Gen | -0.38 | 6 of 6 |
| GFTLESYGIS | VIYSDGRRTFYADSVK | GRAAGTFDR | GPLM_Gen | 0.64 | 6 of 6 |
| GFDLNEYGIS | VIYADGRRTFYIDSVK | GENAGTFDS | En_HC | -0.03 | 6 of 6 |
| GFDLNEYGIS | VIYADGRRTAYTDSVK | GNVAGTFDT | En_Gen | 1.61 | 6 of 6 |
| GFTLNSYGIS | VIYSDGRRTFYDDSVK | GRAASDFDV | Ctrl | not detected | 0 of 6 |
| GFDLNEYGIS | VIYADGRRTFYSDSVK | GAVAGTFDT | En_HC | -0.84 | 6 of 6 |
| GFDLNEYGIS | VIYADGRRTFYADNVK | GEVAGTFEV | En_HC | -0.91 | 6 of 6 |
| GFDLNEYGIS | VIYADGMRTAYADDVK | GNNAGTFDV | En_Gen | -0.49 | 6 of 6 |
| GFTLNSYGIS | VIYSDGRRTFYSDSVK | GMEAGTFDS | GPLM_Gen | 0.15 | 6 of 6 |
| GFDLNEYGIS | VIYADGMRKAYADDVK | GENAGTFDI | En_Gen | -0.33 | 6 of 6 |

Extract of 8 entries:

{"CDR-H1": "GFDLNSYGIS", "CDR-H2": "VIYSDGRRTFYIDSVK", "CDR-H3": "GRAAGTFDS", "group": "GPLM_Gen", "log10 Kd (nM), mean": "0.09", "detected": "6 of 6"}
{"CDR-H1": "GFTLNSYGIS", "CDR-H2": "VIYSDGRRTFYSDSVK", "CDR-H3": "GMEAGTFDS", "group": "GPLM_Gen", "log10 Kd (nM), mean": "0.15", "detected": "6 of 6"}
{"CDR-H1": "GFELNSYGIS", "CDR-H2": "VIYSDGRRTFYGDSVK", "CDR-H3": "GMEAGTFDS", "group": "GP_Gen", "log10 Kd (nM), mean": "0.27", "detected": "6 of 6"}
{"CDR-H1": "GFQLNSYGIS", "CDR-H2": "VIYSDGRRTFYGDSVK", "CDR-H3": "GREAGTFDT", "group": "GPLM_Gen", "log10 Kd (nM), mean": "0.39", "detected": "6 of 6"}
{"CDR-H1": "GFTLESYGIS", "CDR-H2": "VIYADGRRTFYGDWVK", "CDR-H3": "GRAAGTFDS", "group": "GP_HC", "log10 Kd (nM), mean": "1.50", "detected": "4 of 6"}
{"CDR-H1": "GFTLNSYGIS", "CDR-H2": "VIYSDGRRTFYDDSVK", "CDR-H3": "GRAASDFDV", "group": "Ctrl", "log10 Kd (nM), mean": "not detected", "detected": "0 of 6"}
{"CDR-H1": "GFSLESYGIS", "CDR-H2": "VIYSDGRRTFYADSVK", "CDR-H3": "GRAAGTFDS", "group": "GPLM_Gen", "log10 Kd (nM), mean": "0.26", "detected": "6 of 6"}
{"CDR-H1": "GFDLNEYGIS", "CDR-H2": "VIYADGRRTFYSDSVK", "CDR-H3": "GAVAGTFDT", "group": "En_HC", "log10 Kd (nM), mean": "-0.84", "detected": "6 of 6"}

Values of this round are not directly comparable with the first-round values of the same sequences.
Of ten entries with the parent sequence, four were seen in most replicates (averages 0.34 to 2.37), three in one and three in none, so single entries are noisy.
Empty control strains, which show no peptide, gave a signal in 1% of pairings with all heavy chain designs; the median was 2.08 and 95% of these signals were weaker than 0.84. No background was subtracted.
A sequence that the file lists under several names has all its replicates pooled.